According to patent publication US20130164347A1, “MULTILAYER POLYMERIC DRUG DELIVERY SYSTEM” (priority 2011, published 2013):

Experiment: In-vitro release of 5-FU from partially encapsulated multilayer polymeric films
Conditions: 2.5 mm disks die-cut from the carrier layer alone (mono layer)

Question: Which “release profile of 5-FU” value does the source give for O=c1[nH]cc(F)c(=O)[nH]1 [5-FU, 5-Fluoro-Uracil] here?
Answer: burst only
